Test results: patent US20240309003A1, “HETEROCYCLIC COMPOUNDS AS TRIGGERING RECEPTOR EXPRESSED ON MYELOID CELLS 2 AGONISTS AND METHODS OF USE” (Vigil Neuroscience, Inc., priority 2021, published 2024)

Sequences of proteins named here, by UniProt entry; tags and fusion partners are left off. Residues count along the entry.
UniProt Q9NZC2, 19-230 limits assumed: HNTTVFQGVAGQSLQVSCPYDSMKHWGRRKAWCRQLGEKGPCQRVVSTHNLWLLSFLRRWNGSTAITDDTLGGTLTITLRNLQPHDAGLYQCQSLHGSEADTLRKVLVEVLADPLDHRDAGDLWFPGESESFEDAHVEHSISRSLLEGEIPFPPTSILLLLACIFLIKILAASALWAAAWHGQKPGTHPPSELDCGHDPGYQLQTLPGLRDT
UniProt O43914, 22-113 partner limits assumed: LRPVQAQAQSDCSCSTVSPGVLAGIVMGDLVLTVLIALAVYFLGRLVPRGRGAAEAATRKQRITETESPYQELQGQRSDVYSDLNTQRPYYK

Target: human TREM2 (Homo sapiens, UniProt Q9NZC2)
Experiment: TREM2 agonist potency by cellular phosphorylation of Syk (AlphaLisa) in HEK293T-hTREM2 cells
[1] = read-out: hTREM2 EC50, HEK293 cells expressing human TREM2 and DAP12, Table D-2
[2] = read-out: hTREM2 EC50, HEK293 cells expressing human TREM2 and DAP12, Table D

Row | SMILES | EC50 [1] [nM] | EC50 [2] [nM]
1 | Cc1nc2nc(C3(O)CCOC(c4cnn(C5CC5)c4)C3)nc(-c3ccc(Cl)cc3F)c2nc1C (stereo not drawn) | 50 to 500 | –
2 | Cc1nc2cc(-c3nc([C@@H]4CCO[C@H](c5cnn(C6CC6)c5)C4)nc4nc(C)c(C)nc34)ccc2s1 | 3000 to 100000 | –
3 | Cc1nc2nc([C@@H]3CO[C@H](c4cnn(C5CC5)c4)C3)nc(-c3ccc(C(F)(F)F)cc3)c2nc1C | 500 to 3000 | –
4 | Cc1cnc2c(-c3ccc(F)cc3F)nc([C@H]3C[C@@H](C)O[C@@H](c4cnn(C5CC5)c4)C3)cc2n1 (relative stereo) | – | 50 to 500
5 | Cc1nc2nc([C@H]3CO[C@H](c4cnn(C5CC5)c4)C3)nc(-c3ccc(C(F)(F)F)cc3)c2nc1C | 500 to 3000 | –
6 | Cc1nc2nc([C@@H]3CO[C@H](c4cnn(C5CC5)c4)C3)nc(-c3ccc(Cl)cc3)c2nc1C | 50 to 500 | –
7 | Cc1nc2nc(N3CCS(=O)(=O)[C@H](c4cnn(C5CC5)c4)C3)nc(-c3ccc(Cl)cc3F)c2nc1C | 500 to 3000 | –
8 | Cc1nc2nc(N3C[C@@H](c4cnn(C5CC5)c4)O[C@@H](C)C3)nc(C3CCC3)c2nc1C | 50 to 500 | –
9 | COc1ccc(Cn2cc([C@H]3C[C@@H](c4nc(-c5ccc(F)cc5F)c5nc(C)c(C)nc5n4)CCO3)cn2)cc1 | 50 to 500 | –
10 | Cc1nc2cc([C@H]3CCO[C@@H](c4cnn(C5CC5)c4)C3)nc(-c3ccc(F)cc3F)c2nc1COC1COC1 | 500 to 3000 | –
11 | Cc1nc2nc(C3CCOC(c4cnn(C5CC5(F)F)c4)C3)nc(-c3ccc(C(F)(F)F)cc3F)c2nc1C (stereo not drawn) | < 50 | –
12 | Cc1cnc2c(-c3ccc(C(F)(F)F)cc3F)nc(N3C[C@@H](C)O[C@@H](c4cnn(C5CC5)c4)C3)nc2n1 | < 50 | –
13 | [2H]c1c([2H])c(-c2nc(N3C[C@@H](c4cnn(C5CC5)c4)O[C@@H](C)C3)nc3nc(C)c(C)nc23)c(F)c([2H])c1F | < 50 | –
14 | Cc1nc2nc(N3CCO[C@@H](c4cc(C5CC5)on4)C3)nc(-c3ccc(Cl)cc3F)c2nc1C | 50 to 500 | –
15 | Cc1cnc2c(-c3ccc(F)cc3F)nc([C@H]3CCO[C@@H](c4cnn(C5CC5)c4)C3)cc2n1 (relative stereo) | – | 50 to 500
16 | Cc1nc2nc(N3C[C@@H](c4cnn(C5CC5)c4)O[C@@H](C)C3)nc(C3CCCCC3)c2nc1C | < 50 | –
17 | Cc1nc2cc([C@H]3CCO[C@@H](c4cnn(C5CC5)c4)C3)nc(-c3ccc(F)cc3F)c2nc1COCC(F)(F)F | 50 to 500 | –
18 | Cc1nc2nc([C@H]3CCO[C@@H](c4cnn(Cc5ccccc5)c4)C3)nc(-c3ccc(F)cc3F)c2nc1C | < 50 | –
19 | Cc1nc2nc(N3CCO[C@H](c4cnn5c4CCC5)C3)nc(-c3ccc(F)cc3F)c2nc1C [Example I-1529, (2R)-4-[4-(2,4-difluorophenyl)-6,7-dimethyl-pteridin-2-yl]-2-(5,6-dihydro-4H-pyrrolo[1,2-b]pyrazol-3-yl)morpholine] | 50 to 500 | –

Now from value to compound, other results behind:

Row | EC50 [1] [nM] | SMILES | EC50 [2] [nM]
20 | < 50 | CCOc1nc2c(-c3ccc(F)cc3F)nc(C3CCOC(c4cnn(C5CC5)c4)C3)nc2nc1C (stereo not drawn) | –
21 | 3000 to 100000 | Cc1nc2cc([C@H]3CCO[C@@H](c4cnn(C5CC5)c4)C3)nc(-c3ccc(F)cc3F)c2nc1COCCF | –
22 | 50 to 500 | Cc1nc2nc(C3CCO[C@@H](c4cnn(C5CC5)c4)C3)nc(-c3ccc(OC(F)(F)F)cc3F)c2nc1C (stereo partly drawn) | –
23 | 50 to 500 | Cc1nc2nc([C@@H]3CCO[C@H](c4cnn(C5CC5)c4)C3)nc(-c3ccc4c(c3)OCO4)c2nc1C | –
24 | 500 to 3000 | CC(=O)N(C)CCn1cc(C2CC(c3nc(-c4ccc(F)cc4F)c4nc(C)c(C)nc4n3)CCO2)cn1 (stereo not drawn) | –
25 | < 50 | Cc1nc2nc(C3CCOC(c4cnn(C(C)C)c4)C3)nc(-c3ccc(F)cc3F)c2nc1C (stereo not drawn) | –
26 | < 50 | Cc1nc2nc([C@@H]3CCO[C@H](c4cnn(C5CC5)c4)C3)nc(-c3cc(F)c(C(F)(F)F)cc3F)c2nc1C | –
27 | 50 to 500 | Cc1nc2nc([C@H]3CCO[C@@H](c4cnn(C5CC5)c4)C3)nc(-c3ccc4c(c3)CC4)c2nc1C | –
28 | 3000 to 100000 | Cc1nc2nc([C@@H]3CCO[C@H](c4cnn(C5CC5)c4)C3)nc(-c3ccc(C(C)(C)C#N)cc3F)c2nc1C | –
29 | 500 to 3000 | Cc1nc2nc([C@H]3CCO[C@@H](c4cnn(C5CC5)c4)C3)nc(-c3cccc4c3OCO4)c2nc1C | –
30 | 3000 to 100000 | Cc1nc2nc([C@@H]3CCO[C@H](c4cnn(C5CC5)c4)C3)nc(-c3ccc(C(C)(C)C)cc3F)c2nc1C | –

Where two headings read alike, the source gives them in different places.
